In patent publication US6815440B2, “Cyclic and heterocyclic N-substituted α-iminohydroxamic and -carboxylic acids” (Aventis Pharma Deutschland GmbH, priority 1995, dated 2004) one finds IC50 data, which are given here for 4 molecules.

By UniProt entry, the sequences of proteins in these tests, tags left out. Residues count along the entry.
UniProt P22894, 100-262 limits assumed: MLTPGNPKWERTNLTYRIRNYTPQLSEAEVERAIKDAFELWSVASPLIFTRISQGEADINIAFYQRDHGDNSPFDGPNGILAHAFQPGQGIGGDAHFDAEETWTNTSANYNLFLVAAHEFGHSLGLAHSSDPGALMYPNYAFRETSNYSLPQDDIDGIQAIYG

This test concerns the target T1, catalytic domain of neutrophil collagenase (Homo sapiens, UniProt P22894).
T1 construct: enzymatic activity of the catalytic domains of human stomelysine and of neutrophil collagenase; made in house
In words: Enzyme inhibition, catalytic domain of neutrophil collagenase (fluorogenic substrate). The class given is biochemical. Conditions: hydroxamic acids up to and including Example 33; tris/HCl buffer pH=7.5; read-out: Neutrophil collagenase IC 50. How it is done: Preparation and determination of the enzymatic activity of the catalytic domains of human stomelysine and of neutrophil collagenase.
The two enzymes were prepared according to Ye et al., (Biochemistry 31 (1992) 11231-5). To measure the enzyme activity or enzyme inhibitor action, 70 μl of buffer solution and 10 μl of enzyme solution are incubated for 15 minutes with 10 μl of a 10% strength (v/v) aqueous dimethyl sulfoxide solution, which optionally contains the enzyme inhibitor. After addition of 10 μl of a 10% strength (v/v) aqueous dimethyl sulfoxide solution which contains 1 mmol/l of the substrate, the enzyme reaction is monitored by fluorescence spectroscopy (328 nm (ex)/393 nm(em)). The enzyme activity is shown as extinction increase/minute. […] The buffer solution contains 0.05% of Brij (Sigma, Deisenhofen, Germany) and also 0.1 mol/l of tris/HCl, 0.1 mol/l of NaCl, 0.01 mol/l of CaCl2 (pH=7.5) for the determination of the hydroxamic acids up to and including Example 33, or, for the determination of the carboxylic acids from Example 34, 0.1 mol/l of piperazine-N,N′-bis[2-ethanesulfonic acid] pH=6.5.
The enzyme solution contains 5 μg/ml of one of the enzyme domains prepared according to Ye et al. The substrate solution contains 1 mmol/l of the fluorogenic substrate (7-methoxycoumarin-4-yl)acetyl-Pro-Leu-Gly-Leu-3-(2′,4′-dinitrophenyl)-L-2,3-diaminopropionyl-Ala-Arg-NH2 (Bachem, Heidelberg, Germany).
`O=C(NO)C1Cc2ccccc2CN1S(=O)(=O)c1ccccc1` (stereo not shown) [Example 1]: the IC50 is 20 nM. For `CCOC(=O)Nc1cccc(S(=O)(=O)N2Cc3ccccc3CC2C(=O)NO)c1` (stereo not shown) [Example 5], the IC50 was 300 nM. As for `O=C(NO)C1Cc2ccccc2CN1S(=O)(=O)CCc1ccccc1` (stereo not shown) [Example 17], the IC50 is 20 nM. In the case of `O=C(NO)[C@H]1Cc2c([nH]c3ccccc23)CN1S(=O)(=O)c1ccc(Oc2ccccc2)cc1` [Example 32, R-2-(4-phenoxybenzenesulfonyl)-1,2,3,4-tetrahydro-9H-pyrido(3,4-b)-indole-3-hydroxamic acid] it was 7 nM.
